In US5561161A, “Methods of administering and pharmaceutical formulations containing n-substituted benzamides and/or acid addition salts thereof” (priority 1994, dated 1996):

Conditions: about one to about 5 mg/kg

Structure (SMILES): CCN(CC)CCNC(=O)c1cc(Cl)c(N)cc1OC [metoclopramide]
- rate of availability of a given dose by i.m. compared with i.v. injection: comparable to that of the same dose administered by i.v. injection
